These results are taken from US7893199B2, “Peptides having neutrophil-stimulating activity” (National University Corporation Gunma University, priority 2006, dated 2011).

The test system of the experiment is HL-60 cells differentiated into the neutrophil-like cells. The experiment in a line: β-hexosaminidase-secreting activity of neutrophil-like differentiated HL-60 cells. The experiment is classed as cell-based, human. Conditions: for Activity (β-hexosaminidase-secreting activity class): lowest concentration class at which secretion was confirmed. From the text:
(1) Culture of Cell and Differentiation Into Neutrophil-like Cell
In this time, the cells were subcultured at a cell density of 1.0×10^5 cells/ml to 1.5×10^6 cells/ml, the number of cells was counted using a microscope, and the state of the cells was also confirmed.
The HL-60 cells were differentiated into neutrophil-like cells by setting the cell density in the flask to about 1.0×10^6 cells/ml, adding dibutylyl-cAMP (db-cAMP) as a differentiation-inducing agent so as to have a final concentration of 500 μM, and incubating the cells in the presence of CO2 at 37° C. for 3 days.
(2) Stimulation of Cell and Measurement of β-Hexosaminidase-secreting Activity
The cells were collected by centrifuging the suspension of the differentiated HL-60 cells (1,000 rpm, 5 minutes, 4° C.). After that, the following operation was repeated three times to wash the cells: Hepes buffered Hank's solution (HBHS) containing ice-cooled 0.1% BSA (1.2 mM CaCl2.2H2O, 5.4 mM KCl, 0.44 mM KH2PO4, 0.49 mM MgCl2.6H2O, 0.41 mM MgSO4.7H2O, 136.9 mM NaCl, 0.34 mM Na2HPO4, 10 mM Hepes, 4.2 mM NaHCO3, 5.5 mM D-glucose, pH 7.4) was added to the cells; the mixture was suspended by inversion; and the mixture was centrifuged again (1,000 rpm, 5 minutes, 4° C.). Subsequently, HBHS was added so that the mixture has a cell density of 5.6×10^6 cells/ml and suspended. Then, DNase I and cytochalasin B were each added so as to have a final concentration of 5 μg/ml, and the cell suspension was dispensed in an amount of 90 μl (5×10^5 cells) on ice. […] After the cell stimulation for 10 minutes, 100 μl of an ice-cooled stop solution (25 mM Tris, 123 mM NaCl, 2.7 mM KCl, pH 7.4) were added, and immediately, the mixture was centrifuged (5,000 rpm, 1 minute, 4° C.). 200 μl of the obtained supernatant were transferred to a new tube.
The amount of β-hexosaminidase released in the supernatant of the reaction solution was measured by an enzyme reaction using p-nitrophenyl-N-acetyl-μ-D-glucosaminide as a substrate (Non-patent Document 12). That is, the supernatant of the reaction solution was dispensed in an amount of 90 μl to a 96-well plate. 60 μl of a substrate solution (10 mM p-nitrophenyl-N-acetyl-μ-D-glucosaminide, 40 mM citrate, 70 mM Na2HPO4, pH 4.5) were added to each well, followed by incubation at 37° C. for 1 hour. After the reaction, 100 μl of a stop solution (0.4 M glycine, pH 10.7) were added to each well and a color of the released p-nitrophenol was developed. The color development was measured with a plate reader at adsorption at 405 nm (reference: 492 nm). The all amount of β-hexosaminidase contained in the cells was quantified by treating the cells with Triton X-100 having a final concentration of 0.05%. In addition, the amount of β-hexosaminidase secreted by stimulation of 10 μM fMLP was also measured, and the ratio of the secretion amount by stimulation with each peptide to the above sectretion amount by stimulation with fMLP.

Where [1] appears, read: neutrophil-like differentiated HL-60 cells, Table 1, read-out: EC50 (μM), β-hexosaminidase-secreting activity.
The mark [2] stands for this setting: neutrophil-like differentiated HL-60 cells.

Like-named read-outs stand apart in the source and are kept apart here.

As for `CC[C@H](C)[C@H](NC(=O)[C@H](Cc1c[nH]c2ccccc12)NC(=O)[C@H](CCC(N)=O)NC(=O)[C@@H]1CCCN1C(=O)[C@H](CCC(N)=O)NC(=O)[C@H](CC(C)C)NC(=O)[C@@H](NC(=O)[C@H](Cc1c[nH]c2ccccc12)NC(=O)[C@H](C)NC(=O)[C@H](CO)NC(=O)[C@H](CC(C)C)NC(=O)CNC(=O)[C@H](C)NC(=O)[C@@H](NC(=O)CNC(=O)[C@H](C)NC(=O)[C@H](CCCNC(=N)N)NC(=O)[C@H](CO)NC(=O)[C@H](Cc1ccccc1)NC(=O)[C@@H](N)CCSC)C(C)C)[C@@H](C)O)C(=O)N[C@@H](CCC(N)=O)C(=O)N[C@H](C(=O)N[C@@H](CCCNC(=N)N)C(=O)N[C@@H](CC(N)=O)C(=O)N[C@@H](CCSC)C(=O)O)C(C)C` [compound 043], the EC50 under setting [1] amounted to 1.3 µM. Also, under setting [2], the “Activity (β-hexosaminidase-secreting activity class)” value is reported as “∘ (a peptide in which the β-hexosaminidase-secreting activity was confirmed at a concentration of 1 μM or less)”.
For `CC[C@H](C)[C@H](NC(=O)[C@H](CO)NC(=O)[C@H](CCCNC(=N)N)NC(=O)[C@H](CC(C)C)NC(=O)[C@@H](NC(=O)[C@H](CCCNC(=N)N)NC(=O)[C@H](CS)NC(=O)[C@H](CS)NC(=O)[C@H](CCCNC(=N)N)NC(=O)CNC(=O)[C@H](Cc1ccccc1)NC(=O)CNC(=O)[C@H](C)NC(=O)[C@H](C)NC(=O)[C@@H](N)CCSC)C(C)C)C(=O)N[C@@H](CO)C(=O)N[C@@H](CCCNC(=N)N)C(=O)N[C@@H](Cc1ccccc1)C(=O)N[C@@H](Cc1c[nH]cn1)C(=O)N[C@@H](Cc1c[nH]c2ccccc12)C(=O)N[C@@H](CCCNC(=N)N)C(=O)N[C@@H](CO)C(=O)N[C@@H](CCC(N)=O)C(=O)N[C@@H](Cc1c[nH]cn1)C(=O)N[C@H](C(=O)O)[C@@H](C)O` [No. 051], the EC50 (differentiated HL-60 cells, read-out: EC50, β-hexosaminidase-secreting activity) came out at 0.12 µM.
In the case of `CC[C@H](C)[C@H](NC(=O)[C@H](CO)NC(=O)[C@H](CCCNC(=N)N)NC(=O)[C@H](CC(C)C)NC(=O)[C@@H](NC(=O)[C@H](CCCNC(=N)N)NC(=O)[C@H](CS)NC(=O)[C@H](CS)NC(=O)[C@H](CCCNC(=N)N)NC(=O)CNC(=O)[C@H](Cc1ccccc1)NC(=O)CNC(=O)[C@H](C)NC(=O)[C@H](C)NC(=O)[C@@H](N)CCSC)C(C)C)C(=O)N[C@@H](CO)C(=O)N[C@@H](CCCNC(=N)N)C(=O)N[C@@H](Cc1ccccc1)C(=O)N[C@@H](Cc1c[nH]cn1)C(=O)N[C@@H](Cc1c[nH]c2ccccc12)C(=O)N[C@@H](CCCNC(=N)N)C(=O)N[C@@H](CO)C(=O)N[C@@H](CCC(N)=O)C(=O)N[C@@H](Cc1c[nH]cn1)C(=O)N[C@H](C(=O)O)[C@@H](C)O` [compound 051], the concentration giving a half-maximal response (EC50) under setting [1] turned out to be 0.3 µM. Besides, under setting [2], the “Activity (β-hexosaminidase-secreting activity class)” value is on record as “⊚ (a peptide in which the β-hexosaminidase-secreting activity was confirmed at a concentration of 300 nM or less)”.
In the same order, the values of `CSCC[C@H](N)C(=O)N[C@@H](C)C(=O)N[C@@H](CC(C)C)C(=O)N1CCC[C@H]1C(=O)N[C@@H](CC(C)C)C(=O)N[C@@H](CCCNC(=N)N)C(=O)N1CCC[C@H]1C(=O)N[C@@H](CC(C)C)C(=O)N[C@H](C(=O)N[C@@H](CCCNC(=N)N)C(=O)NCC(=O)N[C@@H](CC(C)C)C(=O)N[C@@H](C)C(=O)N[C@@H](CO)C(=O)N[C@@H](C)C(=O)N[C@@H](C)C(=O)N[C@@H](CCCCN)C(=O)NCC(=O)NCC(=O)N[C@@H](Cc1c[nH]cn1)C(=O)NCC(=O)NCC(=O)N[C@@H](C)C(=O)O)[C@@H](C)O` [compound 014] are 18 µM and “● (a peptide in which the β-hexosaminidase-secreting activity was confirmed at a concentration of 10 μM or less)”.
